Data: US20190010158A1, “ANTITUMOR EFFECT POTENTIATOR COMPRISING PYRROLOPYRIMIDINE COMPOUND” (TAIHO PHARMACEUTICAL CO., LTD, priority 2015, published 2019)

How the values were obtained:
Type in all cases: cell-based
[1] = system: human lung cancer A-427 cell line; assay: Cell growth inhibition 2, A-427
Procedure: (§1) The ability of test compounds to inhibit cell growth was determined by quantifying ATP from viable cells using a CellTiter-Glo™ Luminescent Cell Viability Assay (#G7573, produced by Promega, Inc.). The human acute T lymphoblastic leukemia CCRF-CEM cell lines (distributed by Dainippon Pharmaceutical Co., Ltd. (currently Sumitomo Dainippon Pharma Co., Ltd.)) were seeded in a 96-well plate (#165305, produced by Thermo Scientific Nunc) at a concentration of 1,000 cells/100 μL medium per well. The cells were cultured in a 5% CO2 incubator at 37° C. overnight, and the test compound was added thereto, followed by culture for another 72 hours. […] The luminescence intensity was measured using a microplate reader (EnSpire™ Multimode Plate Reader, produced by PerkinElmer Japan Co., Ltd.), and used as an index of the number of viable cells in each well. The cell growth inhibition rate (%) achieved by the compound was determined by the following equation (equation B) by using the luminescence intensity of a drug untreated group (control) as a control. […]
(§2) T: Luminescence intensity in a well to which a test compound was added C: Luminescence intensity in a well to which a test substance was not added
(§3) The ability of test compounds to inhibit cell growth was determined as in Test Example 2, except that the cell lines, the culture plate, and the number of cells seeded per well were as shown in Table 18. […]

[2] = system: human colon cancer HCT116 cell line; assay: Cell growth inhibition 2, HCT116; details: HCT-116
Procedure: as §1, §2, §3

[3] = system: human skin cancer A-431 cell line; assay: Cell growth inhibition 2, A-431
Procedure: as §1, §2, §3

[4] = system: human acute T lymphoblastic leukemia CCRF-CEM cell lines; assay: Cell growth inhibition 1 (CellTiter-Glo); details: culture with test compound 72 hours
[5] = system: human breast cancer MDA-MB-453 cell line; assay: Cell growth inhibition 2, MDA-MB-453
Procedure: as §1, §2, §3

[6] = system: human diffuse large B-cell lymphoma DB cell line; assay: Cell growth inhibition 2, DB
Procedure: as §1, §2, §3

[7] = system: human pancreatic cancer Capan-1 cell line; assay: Cell growth inhibition 2, Capan-1
Procedure: as §1, §2, §3

[8] = system: human acute leukemia MV-4-11 cell line; assay: Cell growth inhibition 2, MV-4-11; details: MV4-11
Procedure: as §1, §2, §3

[9] = system: human osteo- and soft tissue sarcoma SJCRH30 cell line; assay: Cell growth inhibition 2, SJCRH30
Procedure: as §1, §2, §3

[10] = system: human prostate cancer LNCAP.FGC cell line; assay: Cell growth inhibition 2, LNCaP.FGC
Procedure: as §1, §2, §3

## CCOc1cccc(F)c1C#Cc1cn([C@@H]2O[C@H](CNS(N)(=O)=O)[C@@H](O)[C@H]2O)c2ncnc(N)c12 [Reference Example 55, 4-Amino-7-[(2R,3R,4S,5R)-3,4-dihydroxy-5-[(sulfamoylamino)methyl]tetrahydrofuran-2-yl]-5-[2-(2-ethoxy-6-fluoro-phenyl)ethynyl]pyrrolo[2,3-d]pyrimidine]
[1]
  IC50: 0.007 µM
[2]
  IC50: 0.012 µM
[3]
  IC50: 0.48 µM
[4]
  IC50: 0.0022 µM
[5]
  IC50: 0.094 µM
[6]
  IC50: 0.061 µM
[7]
  IC50: 0.87 µM
[8]
  IC50: 0.0067 µM
[9]
  IC50: 0.55 µM
[10]
  IC50: 0.26 µM
